According to US20250186411A1, “Methods of Treating Disorders Associated with Overactivation of IKKB” (The United States Government as represented by the …, priority 2023, published 2025):

Tested on: KLF15
Assay: Cell survival in KLF15 knockdown (KLF15-shRNA) versus EV-shRNA podocytes
Conditions: for cell survival in KLF15-shRNA podocytes: KLF15 knockdown; for cell survival in EV-shRNA podocytes: control podocytes

| SMILES | cell survival in KLF15-shRNA podocytes | cell survival in EV-shRNA podocytes |
| --- | --- | --- |
| CSc1ccc(NC(=O)Nc2ccc(C#N)cn2)cc1 [BT502] | lost | improved cell survival |
| CSc1ccc(NC(=O)Nc2ccc(C)nc2)cc1 [BT503] | lost | improved cell survival |
| CSc1ccc(NC(=O)c2ccc(O)cc2)cc1 [BT501] | lost | improved cell survival |
